## scFv variants of Ab-14 (heavy chain) against a SARS-CoV-2 spike peptide

Source: Li et al. 2023 (doi:10.1038/s41467-023-39022-2), MIT Lincoln Laboratory and A-Alpha Bio; data file from the FLAb repository.

Antigen: PDVDLGDISGINAS, a 14-residue peptide of the SARS-CoV-2 spike HR2 region.

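The parent was found by panning a naive human phage display library on the peptide. Designed CDR sequences, proposed from the first random library and measured here. Group labels follow the data file (Ctrl: baseline library sampled from a position-specific scoring matrix, with some repeated check sequences; En: ensemble of fine-tuned language models; GP: Gaussian process model; GPLM: also part of the Gaussian process libraries; HC: hill climbing; Gen: genetic algorithm; Gibbs: Gibbs sampling; a sequence that several methods proposed may carry one label only). AlphaSeq pools MATa yeast showing the antibodies with MATalpha yeast showing the peptide. After mating in shaken culture at 30 °C for 16 h, diploids were selected and their barcode pairs sequenced. Read counts were normalised to the haploid input and turned into Kd by a linear fit to BCL2-family pairs of known affinity, for each replicate. Mating was done six times.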

Parent: Ab-14, a human scFv built as VH, a (GGGGS)3 linker, VL. Only the CDRs of the heavy chain vary.
VH: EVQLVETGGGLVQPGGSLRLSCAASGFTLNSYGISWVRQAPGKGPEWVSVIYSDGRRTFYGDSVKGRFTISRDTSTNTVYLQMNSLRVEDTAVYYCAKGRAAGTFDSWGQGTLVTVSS
VL: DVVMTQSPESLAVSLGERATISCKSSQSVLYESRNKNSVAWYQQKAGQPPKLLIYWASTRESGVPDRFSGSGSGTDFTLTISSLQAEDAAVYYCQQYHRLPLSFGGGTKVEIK

Variants are written as CDR1, CDR2 and CDR3 of the heavy chain (limits as in the source). Parent: GFTLNSYGIS, VIYSDGRRTFYGDSVK, GRAAGTFDS. Each Kd is an estimate from the mating assay, the geometric mean of the replicates in which the pair was seen; lower is stronger. "nd" means that the variant was in the library but no mating with the target was seen in any replicate; the authors take this as a sign of poor binding, and no number exists. The parent sequence was in this pool as ten entries: three were never detected, three once, and four in most replicates, with averages from 2.2 nM to 240 nM. Some sequences occur more than once in the pool; their replicates are pooled. The authors' rule: three or more of the six replicates give a measured affinity, fewer mean a poor binder. The range of this assay differs from that of the first round, and the authors advise against merging the two. Three control strains display no target. For all heavy chain designs, 1% of the pairings with them gave a signal, with a median of 120 nM and one signal in twenty below 7.0 nM, so weak values seen in few replicates may be background.

Variant GFDLNTYGIS | VIYSDGRRTFYGDSVK | GNAAGTFDS [GPLM_Gibbs] gave 830 pM (6 of 6 replicates).
Variant GFTLNSYGIS | VIYSDGKRTFYGDSVK | GRTAGTFDV [GP_Gen] gave 1.2 nM (2 of 6 replicates).
Variant GFNLDEYGVS | VIYADGIRSTYADAVK | GKHGGAFFV [En_Gibbs] gave nd (0 of 6 replicates).
Variant GFTLNEYGIS | VIYSDGKRTFYGDSVK | GRAAGTFMS [GP_HC] gave 440 nM (1 of 6 replicates).
Variant GFTINSYGIS | VIYSDGRRTFYGDSVK | GQAAGTFDT [Ctrl] gave 31 nM (5 of 6 replicates).
Variant GFDLNEYGIS | VIYADGKRTFYTDSVK | GTFAGTFDV [En_HC] gave 380 pM (6 of 6 replicates).
Variant GFSLNQYGIS | VIYSDGRRTFYIDSVK | GNAAGTFDS [GPLM_Gibbs] gave 930 pM (6 of 6 replicates).
Variant GFNLNEYGIS | VIYADGRRTFYADSVK | GEIAGTFDS [En_HC] gave 280 pM (6 of 6 replicates).
Variant GFQLNSYGIS | VIYSDGRRTFYIDSVK | GQLAGTFDS [GP_HC] gave nd (0 of 6 replicates).
Variant GFDLNSYGIS | VIYSDGRRTFYGDSVK | GRAAGCFYS [GP_HC] gave nd (0 of 6 replicates).
Variant GFDLNEYGIS | VIYADGQRTAYADSVK | GNHAGTFDV [En_Gen] gave 190 pM (6 of 6 replicates).
Variant GFTLNSYGIS | VIYSDGRRTFYSDSVK | GHVAGTFDS [GP_HC] gave 2.3 nM (6 of 6 replicates).
Variant GFTLNSYGIS | VIYSDGRRTFYSDSVK | GEQAGTFDS [GPLM_Gen] gave 3.1 nM (6 of 6 replicates).
Variant GFDIEEMGIS | VIYADGARTVYTNSVK | GSFGDQMNV [En_Gibbs] gave nd (0 of 6 replicates).
Variant GFTLNEYGIS | VIYSDGRRTFYGDSVK | GRAAETFIK [GP_HC] gave nd (0 of 6 replicates).
Variant GFSLNSYGIS | VIYSDGRRTFYADTVK | GQTAGTFDS [GPLM_Gen] gave 3.8 nM (6 of 6 replicates).
Variant GFDLNEYGIS | VIYADGVRTFYVDSVK | GETAGTFDM [En_HC] gave 980 pM (6 of 6 replicates).
Variant GFDLDEYGIS | VIYADGMRTVYADSVK | GENAGTFDM [En_Gen] gave 310 pM (6 of 6 replicates).
Variant HFTLNSYGIS | VIYSDGRRTFYIDSVK | GRIAGTFDS [GP_HC] gave 240 pM (6 of 6 replicates).
Variant GFVLNDYGIS | VIYSDGRRTFYGDSVK | GRTAGTFDK [GP_Gibbs] gave 23 nM (5 of 6 replicates).
Variant GFTLNEYGIS | VIYSDGRRTFYGDSVK | GRAAGTFMQ [GP_HC] gave nd (0 of 6 replicates).
Variant GFPLNSYGIS | VIYSDGRRTFYDDSVK | GQVAGTFDS [GP_HC] gave 20 nM (6 of 6 replicates).
Variant GFELNEYGIS | VIYSDGRRTFYGDSVK | GSAAGTFDK [GP_Gen] gave 2.7 nM (6 of 6 replicates).
Variant GFSLDEMGIS | VIYADGQRTSYVDNVK | GVQGMRVSL [En_Gibbs] gave nd (0 of 6 replicates).
Variant GFDLNEYGIS | VIYADGRRTFYSDSVK | GENGGTFDS [En_HC] gave 4.4 nM (6 of 6 replicates).
Variant GFSLNTYGIS | VIYSDGRRTFYADSVK | GRTAGTFDS [GPLM_Gen] gave 9.5 nM (6 of 6 replicates).
Variant GFELNNYGIS | VIYSDGRRTFYGDSVK | GKAAGTFDS [GPLM_Gen] gave 4.5 nM (6 of 6 replicates).
Variant GFNLDEYGIS | VIYADGRRVAYANAVK | GKNGMFFSF [En_Gibbs] gave nd (0 of 6 replicates).
Variant GQDLAEYGIS | VIYADGKRTYYAQAVK | GTNVGQGDT [En_Gibbs] gave nd (0 of 6 replicates).
Variant GFTLESYGIS | VIYADGRRTFYGDSVK | GRAAGTFWS [GP_HC] gave nd (0 of 6 replicates).
Variant GFNLEEYGIS | VIYADGVRSSYIEDVK | GQWNADFIV [En_Gibbs] gave nd (0 of 6 replicates).
Variant GFSLNNYGIS | VIYSDGRRTQYIDSVK | GRAAGTFDS [GPLM_HC] gave 13 nM (5 of 6 replicates).
Variant GFDLNSYGIS | VIYSDGRRTFYGDSVK | GRNAGTFDS [Ctrl+GPLM_Gen] gave 3.5 nM (11 of 12 replicates).
Variant GFDIDEYGIS | VIYADGTRTAYDNSFK | GQMAGFFTN [En_Gibbs] gave nd (0 of 6 replicates).
Variant GFDLNEYGVS | VIYADGFRTAYTDTVK | GNQFDAIMA [En_Gibbs] gave 640 nM (1 of 6 replicates).
Variant GFTLDSYGIS | VIYSDGRRTFYGDSVK | GRQAGTFIS [GP_HC] gave 56 nM (6 of 6 replicates).
Variant GFNLNEYGIS | VIYADGRRTFYADSVK | GQQAGTFVM [En_HC] gave 550 pM (6 of 6 replicates).
Variant GFDLDEYGIS | VIYADGKRTSYADSVK | GENAGTFDV [En_Gen] gave 110 nM (3 of 6 replicates).
Variant GFGLESYGIS | VIYSDGRRTFYEDSVK | GTAAGTFDS [Ctrl] gave 2.8 nM (6 of 6 replicates).
Variant GFTLNSYGIS | VIYSDGRRTMYDDSVK | GRTAGTFDS [Ctrl] gave 3.2 nM (6 of 6 replicates).
Variant GFTLNSYGIS | VIYSDGRRTFYSDSVK | VRNAGTFDS [Ctrl] gave nd (0 of 6 replicates).
Variant GFELNNYGIS | VIYSDGRRTFYGDWVK | GRTAGTFDS [GP_Gibbs] gave nd (0 of 6 replicates).
Variant GFDLNSYGIS | VIYSDGRRTFYGDSVK | GRAAWTFKS [GP_HC] gave nd (0 of 6 replicates).
Variant GFDLNEYGIS | VIYADGQRTAYAESVK | GENAGTFDV [En_Gen] gave 370 pM (6 of 6 replicates).
Variant GFHLNSYGIS | VIYSDGRRTFYDDSVK | GKTAGTFDS [GPLM_Gen] gave 100 nM (5 of 6 replicates).
Variant GFDLNEYGIS | VIYADGRRTFYADSVK | GNQAGTFDS [En_HC] gave 880 pM (6 of 6 replicates).
Variant GFSLNDYGIS | VIYSDGRRTFYGDSVK | GRQAGTFES [GPLM_Gen] gave 130 nM (3 of 6 replicates).
Variant GFSLNEYGIS | VIYSDGRRTFYADSVK | GHAAGTFDS [GPLM_Gen] gave 940 pM (6 of 6 replicates).
Variant GFTLRSYGIS | VIYSDGRRTQYGDSVK | GRLMGTSDS [Ctrl] gave nd (0 of 6 replicates).
Variant GFDLDEYGIS | VIYADGVRTSYADSVK | GNVAGTFDL [En_Gen] gave 550 pM (6 of 6 replicates).

From the list, the first 4 with no signal in any replicate:

GFNLDEYGVS | VIYADGIRSTYADAVK | GKHGGAFFV [En_Gibbs]: nd (0 of 6 replicates).
GFQLNSYGIS | VIYSDGRRTFYIDSVK | GQLAGTFDS [GP_HC]: nd (0 of 6 replicates).
GFDLNSYGIS | VIYSDGRRTFYGDSVK | GRAAGCFYS [GP_HC]: nd (0 of 6 replicates).
GFDIEEMGIS | VIYADGARTVYTNSVK | GSFGDQMNV [En_Gibbs]: nd (0 of 6 replicates).